The results in this text go back to PubChem BioAssay AID624170 (National Center for Advancing Translational Sciences (NCATS), 2012).

By UniProt entry, the sequences of proteins in these tests, tags left out.
UniProt O94925, whole entry: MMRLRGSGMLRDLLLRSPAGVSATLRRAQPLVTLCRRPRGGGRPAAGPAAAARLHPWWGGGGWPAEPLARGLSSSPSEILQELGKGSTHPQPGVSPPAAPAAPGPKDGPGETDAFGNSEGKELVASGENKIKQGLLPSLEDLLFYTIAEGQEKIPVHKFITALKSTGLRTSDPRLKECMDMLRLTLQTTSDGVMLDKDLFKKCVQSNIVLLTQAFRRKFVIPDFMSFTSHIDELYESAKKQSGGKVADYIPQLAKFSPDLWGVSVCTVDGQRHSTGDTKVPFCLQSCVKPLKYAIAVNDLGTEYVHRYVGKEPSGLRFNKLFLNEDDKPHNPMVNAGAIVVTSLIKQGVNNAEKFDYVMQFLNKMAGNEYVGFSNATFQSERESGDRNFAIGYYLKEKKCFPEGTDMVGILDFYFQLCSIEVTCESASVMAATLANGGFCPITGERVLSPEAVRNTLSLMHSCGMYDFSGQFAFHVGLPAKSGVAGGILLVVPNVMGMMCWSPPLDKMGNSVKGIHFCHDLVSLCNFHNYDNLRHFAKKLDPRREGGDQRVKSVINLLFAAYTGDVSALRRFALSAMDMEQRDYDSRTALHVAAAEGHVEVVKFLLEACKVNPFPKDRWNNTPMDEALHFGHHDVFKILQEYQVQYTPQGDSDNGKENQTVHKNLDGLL

Each structure is given as a SMILES string. The list shows a part of the results, in another mix than the full data. Results filed as inconclusive are left out. Some structures show a salt or complex split into parts, the way the source records it. Calls of active or inactive are those of the source. Calls come from the whole dose curve; as a rule, active = well fitted inhibition curve with a large enough effect; inconclusive = small, poorly fitted or top-dose-only effect, or another doubt; inactive = no such curve, though single readings can be large or run the other way.
% is set by controls: 0 for no effect and ±100 for the full control effect.

The assay deals with Glutaminase kidney isoform, mitochondrial (Homo sapiens) (UniProt O94925). Nature of the assay: qHTS for Inhibitors of Glutaminase (GLS). The note with it: GLS enzymatic activity, qHTS titration; at 45.5 µM (top of the series).
Turning to `CC(C)(C)OC(=O)N1CCC(Nc2ccccc2)CC1`, the activity change, negative = inhibition was inactive: 22.5%.

Turning to `O=C(O)C1(Nc2ccccc2)CCN(Cc2ccccc2)CC1`, the activity change, negative = inhibition is inactive: 44%.

With `NN(c1ccccc1)C1CCN(CCc2ccccc2)CC1`, the activity change, negative = inhibition was inactive: -28.3%.

With `CCCOc1ccc(C(=O)NCC2(N(C)C)CCCCC2)cc1`, the activity change, negative = inhibition was inactive: 6.8%.

In the case of `O=c1[nH]c2ccccc2n1C1CCN(C(c2cc3ccccc3o2)c2nnnn2C2CCCC2)CC1` (stereo unspecified), the activity change, negative = inhibition is inactive: 18%.

For `CCOc1ncccc1C(=O)NCC1(N2CCOCC2)CCCCC1`, the activity change, negative = inhibition was inactive: -6.5%.

In the case of `CN1CCC(Nc2ccc(F)c(Cl)c2)CC1`, the activity change, negative = inhibition is inactive: 2.17%.

Take `CN1CCC(Nc2ccc(Cl)cc2)CC1`: the activity change, negative = inhibition was inactive: 31.2%.

`COc1cc(C(=O)NCC2(N3CCOCC3)CCCCC2)cc(OC)c1OC`: the activity change, negative = inhibition is inactive: 13.9%.

In the case of `COc1cccc(C(c2nnnn2C2CCCC2)N2CCC(n3c(=O)[nH]c4ccccc43)CC2)c1OC` (stereo unspecified), the activity change, negative = inhibition was inactive: -1.1%.

On to `COc1cc(OC)cc(C(=O)NCC2(N3CCOCC3)CCCCC2)c1`, for which the activity change, negative = inhibition is inactive: 8.05%.

With `CCC(CO)(C(=O)OC1CN2CCC1CC2)c1ccccc1` (stereo unspecified), the activity change, negative = inhibition was inactive: -0.391%.

Take `Cc1ccc(C(=O)NCC2(N3CCCCC3)CCCCC2)o1`: the activity change, negative = inhibition was inactive: 9.17%.

For the compound `Cc1ccc(Nc2c([N+](=O)[O-])cc([N+](=O)[O-])cc2[N+](=O)[O-])cc1`, the activity change, negative = inhibition is inactive: -3.39%.

On to `Fc1ccccc1NC1CCN(Cc2ccccc2)CC1`, for which the activity change, negative = inhibition was inactive: -1.75%.

In the case of `Cc1ccc(NC2(C#N)CCN(Cc3ccccc3)CC2)cc1`, the activity change, negative = inhibition was inactive: 1.03%.

Take `CC(=O)N(c1ccccc1)C1CCNCC1`: the activity change, negative = inhibition is inactive: -6.35%.

As for `COc1cccc(C(c2nnnn2C2CCCCC2)N2CCC(n3c(=O)[nH]c4ccccc43)CC2)c1OC` (stereo unspecified), the activity change, negative = inhibition is inactive: 11.1%.

Take `CN(C)C1(CNC(=O)c2ccc(C(C)(C)C)cc2)CCCCC1`: the activity change, negative = inhibition is inactive: 1.2%.

Regarding `CCC(c1nnnn1C1CCCCC1)N1CCC(n2c(=O)[nH]c3ccccc32)CC1` (stereo unspecified), the activity change, negative = inhibition was inactive: 15.7%.

With `O=c1[nH]c2ccccc2n1C1CCN(C(c2ccnc3ccccc23)c2nnnn2C2CCCCC2)CC1` (stereo unspecified), the activity change, negative = inhibition is inactive: -6.86%.

Turning to `COc1cc(OC)cc(C(=O)NCC2(N3CCCCC3)CCCCC2)c1`, the activity change, negative = inhibition is inactive: -5.34%.

Take `Cc1ccccc1C(=O)NCC1(N(C)C)CCCCC1`: the activity change, negative = inhibition is inactive: 0.915%.

On to `CC(C)(C)c1ccc(C(=O)NCC2(N3CCOCC3)CCCCC2)cc1`, for which the activity change, negative = inhibition is inactive: 14.3%.

For `O=C(NCC1(N2CCCCC2)CCCCC1)c1ccco1`, the activity change, negative = inhibition is inactive: -1.97%.

For the compound `Cn1c(=O)[nH]cc(N(CCCl)CCCl)c1=O`, the activity change, negative = inhibition is inactive: -3.4%.

Turning to `CN(C)c1ccc(C(=O)NCC2(N3CCCCC3)CCCCC2)cc1`, the activity change, negative = inhibition was inactive: 0.621%.

For the compound `Cc1ccccc1NC1(C#N)CCN(Cc2ccccc2)CC1`, the activity change, negative = inhibition is inactive: 16.7%.

`CC(C)(C)n1nnnc1C(c1ccnc2ccccc12)N1CCC(n2c(=O)[nH]c3ccccc32)CC1` (stereo unspecified): the activity change, negative = inhibition was inactive: 5.29%.

Turning to `COc1ccc(C(c2nnnn2C2CCCCC2)N2CCC(n3c(=O)[nH]c4ccccc43)CC2)cc1` (stereo unspecified), the activity change, negative = inhibition is inactive: -0.565%.

Turning to `CCN1CCC(Nc2cccc(F)c2)CC1`, the activity change, negative = inhibition was inactive: 1.83%.

For `CCOC(=O)C(CC)C1=NC(C)(C)Cc2ccccc21.O=[N+]([O-])c1cc([N+](=O)[O-])c(O)c([N+](=O)[O-])c1` (stereo unspecified), the activity change, negative = inhibition was inactive: 3.07%.

Take `N#Cc1ccc(C(=O)NCC2(N3CCCCC3)CCCCC2)cc1`: the activity change, negative = inhibition is inactive: -12%.

In the case of `O=C(NCC1(N2CCOCC2)CCCCC1)c1ccccc1[N+](=O)[O-]`, the activity change, negative = inhibition was inactive: 5.89%.

In the case of `O=C(NCC1(N2CCOCC2)CCCCC1)c1ccc([N+](=O)[O-])cc1`, the activity change, negative = inhibition was inactive: 1.52%.

For `CC(C)(C)OC(=O)N1CCC(N(C(=O)c2ccccc2)c2ccc(Cl)cc2)CC1`, the activity change, negative = inhibition is inactive: -9.43%.

On to `CC(C)(C)n1nnnc1C(c1cccc2ccccc12)N1CCC(n2c(=O)[nH]c3ccccc32)CC1` (stereo unspecified), for which the activity change, negative = inhibition was inactive: 1.65%.

In the case of `CN(C)C1(CNC(=O)c2cccc(C#N)c2)CCCCC1`, the activity change, negative = inhibition is inactive: 6.77%.

With `c1ccc(CN2CCC(Nc3ccccc3)CC2)cc1`, the activity change, negative = inhibition was inactive: 31%.

`CCCN1CCC(Nc2cc(OC)cc(OC)c2)CC1`: the activity change, negative = inhibition was inactive: 5.94%.

As for `O=c1[nH]c2ccccc2n1C1CCN(C(c2ccccc2)c2nnnn2C2CCCC2)CC1` (stereo unspecified), the activity change, negative = inhibition was inactive: -1.61%.

Consider `O=C(NCC1(N2CCOCC2)CCCCC1)c1ccccc1`, for which the activity change, negative = inhibition was inactive: 5.08%.

With `Cc1cc(N(CCCl)CCCl)ccc1C=O`, the activity change, negative = inhibition is inactive: 3.48%.

On to `O=c1[nH]c2ccccc2n1C1CCN(C(c2cccs2)c2nnnn2C2CCCCC2)CC1` (stereo unspecified), for which the activity change, negative = inhibition is inactive: 3.88%.

In the case of `COc1ccc(C(=O)NCC2(N3CCOCC3)CCCCC2)cc1OC`, the activity change, negative = inhibition is inactive: 9.33%.

In the case of `O=c1[nH]c2ccccc2n1C1CCN(C(c2ccnc3ccccc23)c2nnnn2C2CCCC2)CC1` (stereo unspecified), the activity change, negative = inhibition was inactive: -8.67%.

`CCCCn1nnnc1C(c1ccccc1)N1CCC(n2c(=O)[nH]c3ccccc32)CC1` (stereo unspecified): the activity change, negative = inhibition is inactive: -1.91%.

In the case of `COc1cc(C(=O)NCC2(N3CCOCC3)CCCCC2)cc(OC)c1C`, the activity change, negative = inhibition is inactive: 12.9%.

`O=C(NCC1(N2CCOCC2)CCCCC1)c1cc(Br)ccc1Cl`: the activity change, negative = inhibition was inactive: 12.1%.

On to `O=C(OC1CN2CCC1CC2)C1c2ccccc2C=Cc2ccccc21` (stereo unspecified), for which the activity change, negative = inhibition was inactive: -1.67%.

For `CCc1cc(C(=O)NCC2(N3CCCCC3)CCCCC2)sc1C`, the activity change, negative = inhibition is inactive: 7.36%.

For the compound `O=C(O)c1cccc(Nc2c([N+](=O)[O-])cc([N+](=O)[O-])cc2[N+](=O)[O-])c1`, the activity change, negative = inhibition was inactive: -0.73%.

For the compound `O=c1[nH]c2ccccc2n1C1CCN(C(c2cccs2)c2nnnn2C2CCCC2)CC1` (stereo unspecified), the activity change, negative = inhibition was inactive: 13%.

As to `CCCCn1nnnc1C(c1cccc(OC)c1OC)N1CCC(n2c(=O)[nH]c3ccccc32)CC1` (stereo unspecified), the activity change, negative = inhibition is inactive: 1.64%.

Consider `COc1cccc(C(c2nnnn2C(C)(C)C)N2CCC(n3c(=O)[nH]c4ccccc43)CC2)c1OC` (stereo unspecified), for which the activity change, negative = inhibition is inactive: 10.1%.

Turning to `CCOC(=O)N1CCC(Nc2ccc(C)cc2)CC1`, the activity change, negative = inhibition is inactive: 4.55%.

Regarding `N/C(=N\O)c1c(N)no[n+]1[O-]`, the activity change, negative = inhibition was inactive: 19.2%.

Turning to `COc1cc(OC)c(C(=O)NCC2(N(C)C)CCCCC2)cc1OC`, the activity change, negative = inhibition was inactive: -11.5%.

Regarding `O=C(NCC1(N2CCOCC2)CCCCC1)c1cc(F)c(F)cc1Cl`, the activity change, negative = inhibition is inactive: 21.1%.

On to `CCC(c1nnnn1C(C)(C)C)N1CCC(n2c(=O)[nH]c3ccccc32)CC1` (stereo unspecified), for which the activity change, negative = inhibition is inactive: 2.02%.

Take `CCCCn1nnnc1C(c1ccnc2ccccc12)N1CCC(n2c(=O)[nH]c3ccccc32)CC1` (stereo unspecified): the activity change, negative = inhibition is inactive: -5.09%.

As for `CC(C)c1ccc(NC2CCN(C(=O)OC(C)(C)C)CC2)cc1`, the activity change, negative = inhibition is inactive: 0%.

For the compound `CCCCn1nnnc1C(c1ccccc1OC(F)(F)F)N1CCC(n2c(=O)[nH]c3ccccc32)CC1` (stereo unspecified), the activity change, negative = inhibition was inactive: -7.03%.

As to `COc1ccc(CN(CCCl)CCCl)cc1Cl`, the activity change, negative = inhibition is inactive: -0.945%.

For `O=[N+]([O-])c1cc([N+](=O)[O-])c(OC2CCCCC2O)c([N+](=O)[O-])c1` (stereo unspecified), the activity change, negative = inhibition is inactive: -10.1%.

`CN(C)c1cccc(C(=O)NCC2(N3CCCCC3)CCCCC2)c1`: the activity change, negative = inhibition was inactive: 9.49%.

Regarding `O=[N+]([O-])c1cc([N+](=O)[O-])c(Nc2ccc(Cl)cc2)c([N+](=O)[O-])c1`, the activity change, negative = inhibition is inactive: 10.9%.

`COc1ccc(C(c2nnnn2C2CCCC2)N2CCC(n3c(=O)[nH]c4ccccc43)CC2)cc1` (stereo unspecified): the activity change, negative = inhibition is inactive: -9.41%.

As to `Cc1ccc(C(=O)NCC2(N(C)C)CCCCC2)o1`, the activity change, negative = inhibition was inactive: 1.28%.

As for `CCCCOc1ccccc1C(=O)NCC1(N2CCOCC2)CCCCC1`, the activity change, negative = inhibition is inactive: 9.44%.

Take `CCCOc1ccc(C(=O)NCC2(N(C)C)CCCCC2)cc1OC`: the activity change, negative = inhibition is inactive: 2.84%.

For the compound `O=C(NCC1(N2CCOCC2)CCCCC1)c1ccccc1Br`, the activity change, negative = inhibition is inactive: 15.1%.

Turning to `O=C(OC1CN2CCC1CC2)c1ccc([N+](=O)[O-])cc1` (stereo unspecified), the activity change, negative = inhibition is inactive: -0.435%.

In the case of `O=C(NCC1(N2CCCCC2)CCCCC1)c1cncc(Br)c1`, the activity change, negative = inhibition was inactive: 10.4%.

As for `COc1ccc2c(c1O)-c1c(O)c(OC)cc3c1[C@H](C2)[N+](C)(C)CC3.O=[N+]([O-])c1cc([N+](=O)[O-])c([O-])c([N+](=O)[O-])c1[O-]`, the activity change, negative = inhibition was inactive: 38.8%.

Turning to `CN1CCC(Nc2cccc(F)c2)CC1`, the activity change, negative = inhibition is inactive: 20.3%.

With `CCN1CCC(Nc2ccc(Cl)cc2)CC1`, the activity change, negative = inhibition is inactive: 12%.

Turning to `N#CC1(Nc2ccccc2)CCN(CCc2ccccc2)CC1`, the activity change, negative = inhibition was inactive: -2.67%.

Turning to `O=c1[nH]c2ccccc2n1C1CCN(C(c2ccccc2OC(F)(F)F)c2nnnn2C2CCCC2)CC1` (stereo unspecified), the activity change, negative = inhibition is inactive: -5.02%.

In the case of `CSc1ccc(C(=O)NCC2(N3CCOCC3)CCCCC2)cc1`, the activity change, negative = inhibition is inactive: 20%.

Regarding `O=C(NCC1(N2CCCCC2)CCCCC1)c1cccc([N+](=O)[O-])c1`, the activity change, negative = inhibition is inactive: 2.26%.

`CCOc1ccc(C(=O)NCC2(N3CCOCC3)CCCCC2)cc1`: the activity change, negative = inhibition is inactive: 17.4%.

Regarding `CC(C)(C)n1nnnc1C(c1ccccc1OC(F)(F)F)N1CCC(n2c(=O)[nH]c3ccccc32)CC1` (stereo unspecified), the activity change, negative = inhibition is inactive: 10.3%.

With `O=C(NCC1(N2CCCCC2)CCCCC1)c1ccc(OC(F)F)cc1`, the activity change, negative = inhibition was inactive: 1.13%.

Regarding `COc1cc(C(=O)NCC2(N3CCCCC3)CCCCC2)ccc1OC(F)F`, the activity change, negative = inhibition was inactive: -22.9%.

With `O=C(NCC1(N2CCOCC2)CCCCC1)c1cc(=O)[nH]c2ccccc12`, the activity change, negative = inhibition is inactive: 15.5%.

On to `CCCCn1nnnc1C(c1cccc2ccccc12)N1CCC(n2c(=O)[nH]c3ccccc32)CC1` (stereo unspecified), for which the activity change, negative = inhibition is inactive: 6.4%.

On to `CN1CCN(CCOC(=O)C(O)(c2ccccc2)c2ccccc2)CC1`, for which the activity change, negative = inhibition is inactive: 6.89%.

With `COc1ccc(NC2CCN(C(=O)OC(C)(C)C)CC2)cc1`, the activity change, negative = inhibition is inactive: 2.26%.

For the compound `CC(C)c1ccc(C(=O)NCC2(N3CCOCC3)CCCCC2)cc1`, the activity change, negative = inhibition was inactive: 17.2%.

Regarding `O=[N+]([O-])c1cc([N+](=O)[O-])c(NCC2CCS(=O)(=O)C2)c([N+](=O)[O-])c1` (stereo unspecified), the activity change, negative = inhibition was inactive: 2.4%.
